# Measurements reported in PMC5431342, “Discovery of an enzyme and substrate selective inhibitor of ADAM10 using an exosite-binding glycosylated substrate” (Scientific Reports, 2016).
# Sequences of proteins named here, by UniProt entry; tags and fusion partners are left off. Residues count along the entry.
# UniProt O14672, 214-748 limits assumed: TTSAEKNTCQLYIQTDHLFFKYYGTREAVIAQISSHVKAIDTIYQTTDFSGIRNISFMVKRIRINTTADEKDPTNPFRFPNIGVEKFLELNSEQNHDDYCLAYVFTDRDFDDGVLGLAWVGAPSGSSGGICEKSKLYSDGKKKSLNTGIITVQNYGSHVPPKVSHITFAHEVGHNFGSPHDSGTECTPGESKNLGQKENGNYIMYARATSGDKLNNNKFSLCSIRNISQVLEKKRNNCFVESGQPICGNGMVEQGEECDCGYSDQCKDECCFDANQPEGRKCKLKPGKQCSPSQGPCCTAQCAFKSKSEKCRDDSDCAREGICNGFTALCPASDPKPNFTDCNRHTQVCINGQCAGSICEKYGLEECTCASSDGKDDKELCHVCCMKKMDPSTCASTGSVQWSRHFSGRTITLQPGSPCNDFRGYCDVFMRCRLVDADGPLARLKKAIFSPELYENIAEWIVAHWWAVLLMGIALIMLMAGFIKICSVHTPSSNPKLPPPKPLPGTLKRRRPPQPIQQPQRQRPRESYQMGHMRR
# pIC50: −log10 of the molar value.
# Biological target: ADAM10 (Homo sapiens, UniProt O14672)
# Assay: ADAM10 glycosylated substrate uHTS/HTS assay
# Type: biochemical
# Method: To enable uHTS both ADAM10 and ADAM17 glycosylated substrate[13] (Fig. 1A) assays were miniaturized to 1536 well plate format. The workflow of the assays in 384 well plate format was recaptured in 1536 well plate format and assay volume was scaled down to 5 µL.
# Both assays followed the same general protocol. […] Reactions were incubated at RT for 2 h, after which the fluorescence was measured using Perkin Elmer Viewlux multimode microplate imager (λexcitation = 360 nm, λemission = 460 nm). Final concentration of test compounds in assays was 7.0 µM.
# The miniaturized 1536-well plate format ADAM10 and ADAM17 assays were used to screen a collection of ≈370,000 compounds (MLSMR library, provided by the NIH) on the automated Kalypsys/GNF platform at the Scripps Research Institute Molecular Screening Center (SRIMSC, Jupiter, FL. More details at http://hts.florida.scripps.edu/). […] Both uHTS campaigns were run separately but in a similar manner. Briefly, the first step was the primary screen of all MLSMR’s test compounds as singlicate against the ADAM10 or ADAM17 target at a final concentration of 7.0 μM. […] Sample to background (S/B) ratios, as well as Z and Z′ values were calculated on a per-plate basis as described before. […]
structure (smiles),measurement,value
CCCCC[C@H](CC(=O)NO)C(=O)N[C@H](C(=O)N1CCC[C@H]1CO)C(C)C,pIC50,< 4.15
